# How the values were obtained:
# Amino acid sequences for entries named in this document (tags omitted).
# UniProt P30291, whole entry: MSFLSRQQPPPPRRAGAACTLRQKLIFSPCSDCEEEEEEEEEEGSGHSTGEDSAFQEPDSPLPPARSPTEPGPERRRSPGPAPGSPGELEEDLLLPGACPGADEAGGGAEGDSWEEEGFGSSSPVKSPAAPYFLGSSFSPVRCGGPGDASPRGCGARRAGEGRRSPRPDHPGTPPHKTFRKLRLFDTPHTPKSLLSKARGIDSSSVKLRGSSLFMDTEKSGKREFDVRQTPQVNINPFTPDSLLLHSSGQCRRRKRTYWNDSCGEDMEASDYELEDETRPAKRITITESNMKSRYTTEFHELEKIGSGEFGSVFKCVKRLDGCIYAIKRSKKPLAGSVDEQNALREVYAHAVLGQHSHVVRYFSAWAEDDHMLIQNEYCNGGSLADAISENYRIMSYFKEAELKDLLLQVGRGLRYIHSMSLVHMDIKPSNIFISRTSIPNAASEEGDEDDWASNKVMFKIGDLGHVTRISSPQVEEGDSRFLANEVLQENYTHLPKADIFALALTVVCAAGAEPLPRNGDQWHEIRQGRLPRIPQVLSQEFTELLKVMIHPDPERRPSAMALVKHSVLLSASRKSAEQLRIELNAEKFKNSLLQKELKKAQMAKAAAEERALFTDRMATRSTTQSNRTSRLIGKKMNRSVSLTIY
# H1299 cells = experiment: Anti-proliferative effect on H1299 cells by Cell Titer-Glo; conditions: read-out: H1299 (IC50, inhibition of proliferation in vitro), 3 days
# Wee1 protein = Wee1 protein (Homo sapiens, UniProt P30291); experiment: Binding of compound to Wee1 protein and Tracer 178 by TR-FRET (Wee1 kinase inhibitory activity); conditions: read-out: IC50 (inhibitory activity against Wee1 kinase), 15 nM WEE1, 50 nM Tracer 178
# MIA PaCa2 cells = experiment: Anti-proliferative effect on MIA PaCa2 cells by Cell Titer-Glo; conditions: read-out: MIA PaCa 2 (IC50, inhibition of proliferation in vitro), 3 days
IC50 (H1299 cells),IC50 (Wee1 protein),IC50 (MIA PaCa2 cells),SMILES
5 to 10 µM,0.01 to 0.1 µM,5 to 10 µM,C=CCn1c(=O)c2cnc(Nc3ccc(N4CC5CC(C4)N5C)cc3)nc2n1-c1ccc2c(n1)c(CC(=O)O)cn2C
> 10 µM,0.01 to 0.1 µM,> 10 µM,C=CCn1c(=O)c2cnc(Nc3ccc(N4CC5CC(C4)N5C)cc3)nc2n1-c1ccc2c(n1)c(CC(=O)OC)cn2C
